Assay results taken from article PMC11336009, “DPP-4 inhibitors sitagliptin and PF-00734,200 mitigate dopaminergic neurodegeneration, neuroinflammation and behavioral impairment in the rat 6-OHDA model of Parkinson’s disease” (GeroScience, 2024).

Chains of the proteins cited; added tags and fusions are not shown. Residues count along the entry.
UniProt P14740, 37-767: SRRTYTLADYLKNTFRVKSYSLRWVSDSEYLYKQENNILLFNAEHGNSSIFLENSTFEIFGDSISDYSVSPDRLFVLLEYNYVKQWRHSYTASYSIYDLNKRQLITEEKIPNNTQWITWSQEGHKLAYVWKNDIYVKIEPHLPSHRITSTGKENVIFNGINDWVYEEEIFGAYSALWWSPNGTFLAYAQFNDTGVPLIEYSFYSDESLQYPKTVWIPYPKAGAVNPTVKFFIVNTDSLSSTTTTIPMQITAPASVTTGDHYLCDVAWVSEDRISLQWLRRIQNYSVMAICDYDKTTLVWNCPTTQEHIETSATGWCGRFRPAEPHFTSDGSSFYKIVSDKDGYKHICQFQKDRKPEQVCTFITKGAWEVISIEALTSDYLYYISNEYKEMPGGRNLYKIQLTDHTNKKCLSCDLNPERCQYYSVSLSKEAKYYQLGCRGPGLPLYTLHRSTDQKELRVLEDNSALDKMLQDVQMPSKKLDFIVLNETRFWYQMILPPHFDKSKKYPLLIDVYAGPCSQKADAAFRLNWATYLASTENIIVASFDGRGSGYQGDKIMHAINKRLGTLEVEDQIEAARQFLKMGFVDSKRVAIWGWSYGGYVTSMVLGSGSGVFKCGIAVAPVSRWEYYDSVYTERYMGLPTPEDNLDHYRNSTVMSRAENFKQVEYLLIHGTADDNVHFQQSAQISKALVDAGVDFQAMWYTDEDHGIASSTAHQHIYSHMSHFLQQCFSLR

Biological target: DPP-4 (Rattus norvegicus, UniProt P14740)
Assay: in vivo
Conditions: po, read-out: Plasma DPP-4 activity inhibition

Compound `N[C@@H](CC(=O)N1CCn2c(nnc2C(F)(F)F)C1)Cc1cc(F)c(F)cc1F` [Sitagliptin] has an inhibition at 30 mg/kg of over 60%.
